Test: Presensitization and dose finding with DNCB solutions on the forearm (rash / erythema, DTH response)
Assay type: in vivo, human
Conditions: 0.2% DNCB solution on forearm
Text: The subject was presensitized to DNCB by dipping a cotton-tipped swab in a 2% DNCB solution in acetone, and contacting the cotton-tipped swab with two spots on the forearm. […] Two weeks later, the subject again applied a 2% DNCB solution to their forearm at two small spots different from where the sensitizing dose had been applied. […] The subject then applied a 0.1%, 0.2%, and 0.3% solutions to separate small spots on the forearm.

**Q.** With `O=[N+]([O-])c1ccc(Cl)c([N+](=O)[O-])c1` [DNCB, 1-chloro-2,4-dinitrobenzene] as the compound, how does the duration of erythema read?
**A.** about 3 days

**Q.** And the “onset of erythema after applying the solution” value?
**A.** 2 days

Reference: patent US12128098B2, “Non-specific delayed-type hypersensitivity response to treat herpes simplex virus infection” (Squarex, LLC, priority 2015, dated 2024)
